Results reported in PMC9841523, “Discovery of RMC-5552, a Selective Bi-Steric Inhibitor of mTORC1, for the Treatment of mTORC1-Activated Tumors” (Journal of Medicinal Chemistry, 2022).
Read-outs that look alike come from different tables or passages of the source.

By UniProt entry, the sequences of proteins in these tests, tags left out. Residues count along the entry.
UniProt P23219, 24-599: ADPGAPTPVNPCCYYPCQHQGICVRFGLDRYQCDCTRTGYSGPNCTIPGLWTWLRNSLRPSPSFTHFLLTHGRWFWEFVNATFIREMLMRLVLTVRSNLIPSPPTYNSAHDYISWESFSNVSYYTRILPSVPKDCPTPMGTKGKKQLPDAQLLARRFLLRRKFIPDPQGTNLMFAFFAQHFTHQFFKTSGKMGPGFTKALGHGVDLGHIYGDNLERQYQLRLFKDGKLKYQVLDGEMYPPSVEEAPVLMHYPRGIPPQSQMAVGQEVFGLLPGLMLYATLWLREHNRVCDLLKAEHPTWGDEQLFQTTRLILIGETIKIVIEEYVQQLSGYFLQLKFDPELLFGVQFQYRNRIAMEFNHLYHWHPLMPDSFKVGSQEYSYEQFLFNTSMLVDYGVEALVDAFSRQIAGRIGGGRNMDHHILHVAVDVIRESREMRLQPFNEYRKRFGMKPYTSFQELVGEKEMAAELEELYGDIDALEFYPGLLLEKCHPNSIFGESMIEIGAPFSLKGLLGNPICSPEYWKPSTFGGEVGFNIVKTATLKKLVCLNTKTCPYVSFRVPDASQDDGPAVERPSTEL

What was measured:
Wnk1, Wnk2, Wnk3 = test: KiNativ kinase panel; assay type: cell-based, human; settings: 1 μM, MCF-7 Cells, Lys2
ROCK1, ROCK2 = test: KiNativ kinase panel; assay type: cell-based, human; settings: 1 μM; MCF-7 Cells; Lys1; VYAMKLLSK
[1] = system: 4EBP1 T37/T46 phosphorylation (mTORC1); test: AlphaLISA/MSD analysis of 4EBP1 phosphorylation in MDA-MB-468 cells; assay type: cell-based
Procedure: Cell culture and reagents. Cells were obtained from ATCC, grown in appropriate medium supplemented with 10% fetal bovine serum and 1% penicillin/streptomycin and maintained at 37 °C in a humidified incubator at 5% CO 2.
AlphaLISA and MesoScale Discovery (MSD) analysis of 4EBP1, S6K and AKT phosphorylation. mTOR substrate phosphorylation in MDA-MB-468 cells was assayed using AlphaLISA SureFire Ultra kits for p4EBP1 Thr37/46, p-P70S6K Thr389 and p-AKT1/2/3 Ser473 (PerkinElmer), and MSD Multi-Array Assay Systems for Phospho-4EBP1 (Thr37/46) and Phospho-AKT (Ser473) (MSD). Cells were seeded at 25,000 cells per well and exposed the next day to serial three-fold dilutions of compounds in complete medium with 0.1% dimethylsulfoxide (DMSO). After indicated incubation times, cells were lysed and AlphaLISA or MSD performed according to the manufacturers’ protocols. Samples were read using an EnVision Multilabel Plate Reader (PerkinElmer) using standard AlphaLISA settings or using an MSD plate reader. Data were plotted as a function of logM [compound] with a sigmoidal concentration response (variable slope) model fitted to the data to estimate the inhibitor half-maximum effective concentration (EC 50) in Prism 7 (GraphPad). Alternatively, results were analyzed as percentage of control in which 0% was set as signal from 1 μM Torin1 and 100% was set as the mean of DMSO wells on each plate, and inhibitor EC 50 was estimated as described

Wnk1, Wnk2, Wnk4 = test: KiNativ kinase panel; assay type: cell-based, human; settings: 1 μM, MCF-7 Cells, Activation Loop
COX1(h) = molecular target: T1, COX1(h) (Homo sapiens, UniProt P23219); test: Eurofins Safety Screen 44; assay type: biochemical; settings: read-out: % Inhibition of Control Values
T1 construct: Eurofins (ran the panel)

[2] = molecular target: T2, GR (h) (agonist radioligand) (Homo sapiens, UniProt P04150); test: Eurofins Safety Screen 44; assay type: binding; settings: read-out: % Inhibition of Control Values
T2 construct: purchased ActivX Biosciences (KiNativ)
T2 sequence (P04150 1-777): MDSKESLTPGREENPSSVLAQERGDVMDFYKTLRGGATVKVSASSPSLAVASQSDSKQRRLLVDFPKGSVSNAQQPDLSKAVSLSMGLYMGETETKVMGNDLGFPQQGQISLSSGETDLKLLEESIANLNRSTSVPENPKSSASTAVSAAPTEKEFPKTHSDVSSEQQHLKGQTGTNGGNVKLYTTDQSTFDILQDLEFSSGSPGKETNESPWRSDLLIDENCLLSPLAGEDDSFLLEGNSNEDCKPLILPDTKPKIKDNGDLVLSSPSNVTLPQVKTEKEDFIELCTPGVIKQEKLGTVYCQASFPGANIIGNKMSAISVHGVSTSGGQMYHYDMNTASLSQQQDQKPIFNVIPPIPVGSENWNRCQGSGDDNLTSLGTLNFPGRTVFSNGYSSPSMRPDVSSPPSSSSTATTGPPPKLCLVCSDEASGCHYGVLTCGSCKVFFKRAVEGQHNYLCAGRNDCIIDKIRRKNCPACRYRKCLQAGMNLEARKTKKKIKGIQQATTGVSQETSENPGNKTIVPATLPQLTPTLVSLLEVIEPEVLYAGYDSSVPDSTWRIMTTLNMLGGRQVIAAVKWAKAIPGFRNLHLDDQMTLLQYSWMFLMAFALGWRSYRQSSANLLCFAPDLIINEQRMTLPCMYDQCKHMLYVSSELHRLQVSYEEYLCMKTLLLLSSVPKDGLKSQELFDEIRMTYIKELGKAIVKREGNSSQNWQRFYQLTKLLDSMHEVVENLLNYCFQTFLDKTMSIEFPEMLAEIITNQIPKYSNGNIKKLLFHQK

[3] = system: RSK1 domain1, RSK2 domain1, RSK3 domain1; test: KiNativ kinase panel; assay type: cell-based, human; settings: 1 μM, MCF-7 Cells, Lys2

Row | SMILES | KiNativ Kinase Panel Data (Wnk1, Wnk2, Wnk3) | KiNativ Kinase Panel Data (ROCK1, ROCK2) | mTORC1/2 selectivity in MDA-MB-486 cell assay [1] | selectivity (mTORC1/mTORC2 ratio) [1] | selectivity for mTORC1 over mTORC2 [1] | KiNativ Kinase Panel Data (Wnk1, Wnk2, Wnk4) | inhibition at 10 µM (COX1(h)) | inhibition at 10 µM [2] | KiNativ Kinase Panel Data [3] | selectivity (mTORC1/mTORC2 ratio) ([1]; pAKT IC50 versus p4EBP1 IC50, MDA-MB-468 cells)
1 | CO[C@H]1C[C@@H]2CC[C@@H](C)[C@@](O)(O2)C(=O)C(=O)N2CCCC[C@H]2C(=O)O[C@H]([C@H](C)C[C@@H]2CC[C@@H](OC(=O)NCCOCCOCCOCCOCCOCCOCCOCCOCCC(=O)N3CCc4cc(Cn5nc(-c6ccc7oc(N)nc7c6)c6c(N)ncnc65)ccc4C3)[C@H](OC)C2)C[C@@H](O)[C@H](C)/C=C(\C)[C@@H](O)[C@@H](OC)C(=O)[C@H](C)C[C@H](C)/C=C/C=C/C=C/1C [compound 38] | -22.1 | 20.5 | 40× | 39.6 | ~40 fold | 23.6 | 22.1% | 21.8% | 22.0 | 
2 | CO[C@H]1C[C@@H]2CC[C@@H](C)[C@@](O)(O2)C(=O)C(=O)N2CCCC[C@H]2C(=O)O[C@H]([C@H](C)C[C@@H]2CC[C@@H](OC(=O)NCCOCCOCCOCCOCCOCCOCCOCCOCCC(=O)N3CCc4cc(Cn5nc(-c6ccc7oc(N)nc7c6)c6c(N)ncnc65)ccc4C3)[C@H](OC)C2)CC(=O)[C@H](C)/C=C(\C)[C@@H](O)[C@@H](OC)C(=O)[C@H](C)C[C@H](C)/C=C/C=C/C=C/1C [compound 30] |  |  |  |  |  |  |  |  |  | 11.2
